The text below walks through data of patent publication US9339529B2, “Glucose-responsive microgels for closed loop insulin delivery” (Massachusetts Institute of Technology, priority 2012, dated 2016).

A short description of data set [1]: Thermal stability of native GOx and GOx nanocapsules at 60° C. (Amplex Red Glucose/Glucose Oxidase Assay Kit). The data set is classed as physicochemical. To be noted: after 4 hours. The procedure:
(§1) FIG. 4A is a graph showing enzyme stability (% residual activity) of native GOx (bottom curve) and GOx nanogels (top curve) as a function of time (minutes) at 60° C. in PBS buffer. FIG. 4B is a graph comparing catalytic activity of native enzymes (mixture of GOx and CAT, 0.15 mg/mL, weight ratio of GOx to CAT:4:1) and enzyme nanocapsules incubated with a 400 mg/dL glucose saline solution after incubation with proteinase K (1 mg/mL) at 37° C. for 24 hours. FIG. 4C is a graph showing remained enzymatic activity of native GOx and GOx nanocapsules in microgels (without CAT or CAT nanocapsules) incubated with a 400 mg/dL glucose saline solution, quantified over time by the Amplex® Red Glucose/Glucose Oxidase Assay Kit.
(§2) The enzymatic activity of native GOx and GOx nanocapsules was tested by the Amplex® Red Glucose/Glucose Oxidase Assay Kit (Invitrogen). Thermal stability of the native and the GOx nanocapsules was compared by incubating at 60° C. After 4 hours, the enzyme nanocapsule retained 70% of its original activity, whereas the native GOx retained only 20% of its original activity, as shown in FIG. 4A. The enhanced thermal stability of the enzyme nanocapsules is likely due to covalent attachment to the protective polymer. […]

Data set [2] can be described thus: Remaining enzyme activity of GOx after encapsulation in microgels incubated with 400 mg/dL glucose saline solution. It is filed as physicochemical. To be noted: after 3 hours. The procedure:
as §1, §2

In the case of glucose oxidase [native GOx], the “retained original enzymatic activity” value in data set [1] was 20%. In addition, the “retained enzyme activity after encapsulation in microgels” value in data set [2] is “about 60%”.
